Among the data in BindingDB's records for doi:10.1021/acs.jnatprod.5b00062 (Albert-Ludwigs-University of Freiburg, 2015) are IC50 values, retold here.

Chains of the proteins cited; added tags and fusions are not shown. Lines headed by an entry give the natural chain unless they say otherwise; changes in a name come on top.
UniProt P11507: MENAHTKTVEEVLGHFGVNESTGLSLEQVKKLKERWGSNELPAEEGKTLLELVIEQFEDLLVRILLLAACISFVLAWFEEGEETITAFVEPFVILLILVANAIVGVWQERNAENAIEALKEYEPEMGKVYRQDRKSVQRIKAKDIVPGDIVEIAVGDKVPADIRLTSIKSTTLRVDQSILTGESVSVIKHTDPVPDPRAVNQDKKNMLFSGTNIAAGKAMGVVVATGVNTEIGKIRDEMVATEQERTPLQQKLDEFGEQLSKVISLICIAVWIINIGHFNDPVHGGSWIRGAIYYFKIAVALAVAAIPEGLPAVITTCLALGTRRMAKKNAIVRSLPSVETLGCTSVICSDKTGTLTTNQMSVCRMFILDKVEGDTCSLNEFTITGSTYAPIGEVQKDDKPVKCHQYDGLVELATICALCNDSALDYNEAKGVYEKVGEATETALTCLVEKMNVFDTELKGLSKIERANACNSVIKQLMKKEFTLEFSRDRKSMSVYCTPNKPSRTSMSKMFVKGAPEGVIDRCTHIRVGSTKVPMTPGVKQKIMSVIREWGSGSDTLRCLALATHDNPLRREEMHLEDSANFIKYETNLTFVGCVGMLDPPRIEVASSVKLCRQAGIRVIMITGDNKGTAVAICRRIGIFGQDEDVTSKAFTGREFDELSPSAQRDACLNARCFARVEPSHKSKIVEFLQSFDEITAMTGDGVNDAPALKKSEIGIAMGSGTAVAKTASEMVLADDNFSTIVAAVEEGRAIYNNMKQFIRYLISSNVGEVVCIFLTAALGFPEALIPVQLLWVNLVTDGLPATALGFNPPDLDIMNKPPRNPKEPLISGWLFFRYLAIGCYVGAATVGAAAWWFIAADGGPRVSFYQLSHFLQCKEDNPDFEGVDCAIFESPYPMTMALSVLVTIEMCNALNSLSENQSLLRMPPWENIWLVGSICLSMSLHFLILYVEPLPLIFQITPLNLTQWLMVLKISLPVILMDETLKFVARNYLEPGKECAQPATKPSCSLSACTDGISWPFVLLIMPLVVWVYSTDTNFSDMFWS

What is called IC50 is the concentration needed to halve the response being measured.

The target in the test is Sarcoplasmic/endoplasmic reticulum calcium ATPase 2 (Rattus norvegicus, UniProt P11507). The experiment in a line: Inhibition of Wistar rat heart SERCA2a after 1 hr.

The structures appear in SMILES notation.

`CC[C@H](C)[C@H]1O[C@]2(CC[C@@H]1C)C[C@@H]1C[C@@H](C/C=C(\C)[C@@H](O[C@H]3C[C@H](OC)[C@@H](O[C@H]4C[C@H](OC)[C@@H](O)[C@H](C)O4)[C@H](C)O3)[C@@H](C)/C=C/C=C3\CO[C@@H]4[C@H](O)C(C)=C[C@@H](C(=O)O1)[C@]34O)O2` [ABAMECTIN]: the IC50 worked out at 6.72 µM.
